How the values were obtained:
BM-induced mice = settings: mouse, in vivo
Description: Studies were also performed to determine if macrophages in pulmonary fibrotic lungs might be specifically targeted with folate-linked drugs in vivo. […] (The BM model is widely regarded to be helpful in terms of enabling mechanistic investigations relevant to fibrogenesis in an in vivo context.)
More specifically, eight-week-old C57BL6 male mice from Charles River (average weight 22 g to 25 g) were housed under pathogen-free conditions at room temperature (22° C.) under a 12 hours light-dark cycle. Mice were placed on a folate deficient chow (Envigo Teklad Global Rat Food Pellets) for 1 week prior to the BM or PBS instillation. Fresh water and folate-deficient diet were freely available. All animal procedures were approved by the Purdue Animal Care and Use Committee in accordance with National Institute of Health guidelines.
Thereafter, the mice were anesthetized with ketamine/xylazine and the necks of the mice were shaved using hair remover lotion and then sterilized with 70% alcohol. A small incision was made on the neck to visualize the trachea. […] Body weights were monitored every other day throughout the experiment. […]
Bronchoalveolar lavage fluid (BALF) was then analyzed to determine how the targeted TLR7 agonist works. […]

healthy mice = settings: mouse, in vivo

Q: Which weight loss (BM-induced mice) does the source give for `CCCCc1nc2c(N)nc3ccccc3c2n1CC(C)(C)O` [Compound 1A, 1-(4-Amino-2-butyl-1H-imidazo[4,5-c]quinolin-1-yl)-2-methylpropan-2-ol] here?
A: The weight loss was greater than 25%.

Q: And the “systemic cytokine release (plasma IL-6, IFNα, TNFα)” value (healthy mice)?
A: The value was “stimulates systemic cytokine release”.

From patent publication US20250269036A1, “METHODS FOR ENHANCEMENT OF ENGINEERED CELL THERAPIES IN CANCER TREATMENT” (PURDUE RESEARCH FOUNDATION, priority 2021, published 2025)
